Assay results published in ChEMBL document CHEMBL3232786, “Therapeutic utility of cannabinoid receptor type 2 (CB(2)) selective agonists” (J Med Chem, 2013).

Assay: Selectivity ratio of Ki for CB2 receptor of mouse spleen to Ki for human CB1 receptor
Format: tissue-based

Question: For CCCCC/C=C\C/C=C\C/C=C\C/C=C\CCCC(=O)N[C@H](C)CO, which Ratio Ki is on record?
Answer: 40.7
